gsp antag = antagonizes gsp, the McCune-Albright syndrome mutation; gsp-mutant cells, cAMP HTRF, 30 min; Potency, µM (highest dose often 76.9 µM), usual class: inhibitors; 340,000 compounds, 0.4% hits; AID 624288; calls by dose curve; cell line not stated here;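 further: intracellular cAMP measured with PDE inhibitor Ro 20-1724 present during compound exposure; nearly all actives have a fitted effect of over 65% in size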
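Cells in G418 medium, seeded 16-24 h, 37C; buffer exchange to DPBS + 1 mM CaCl2, 0.5 mM MgCl2, 0.05% BSA; cpds in DMSO + […] (300 uM stock), 30 min 37C; HTRF cAMP detection.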
Rango complex inh = prevents formation of the Rango-importin beta complex | Q14974 | Rango CFP/YFP FRET sensor + importin beta, 45 min | Potency, µM (top dose mostly 92.2 µM) | 340,000 compounds, 0.031% hits | AID 540263; further: nearly all actives have a fitted effect of over 15% in size
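FRET biosensor (snurportin 1 IBB flanked by EYFP and cerulean), 50 nM, with compound 5 min, then 0.125 microM importin beta in PBS, 1 mM DTT, 0.02% Tween-20, 0.1% BSA. CFP/YFP ratio read after 45 min at room temperature; pre-read flags interference.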
gsp agonist = activates gsp, the McCune-Albright syndrome mutation | 340,000 compounds, 0.13% hits | gsp mutant cells, cAMP HTRF, 30 min | AID 624287 | Potency, µM (highest dose often 76.9 µM), usual class: activators; active means well fitted activation curve with a large enough effect; inconclusive means small, poorly fitted or top-dose-only effect, or another doubt; inactive means no such curve, though single readings can be large or run the other way; cell line not stated here;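 further: phosphodiesterase inhibitor Ro 20-1724 added with compounds to block cAMP breakdown; nearly all actives have a fitted effect of over 60% in size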
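Cells in DMEM/10% FBS with G418 were pretreated with compounds in DMSO plus […] (300 uM stock) for 30 min at 37C. cAMP was measured by HTRF (cAMP-d2 plus anti-cAMP antibody-K) after 30 min at room temperature.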
ASM inhibitor = inhibitors of human secretory acid sphingomyelinase | P17405 | placental ASM, HMU-PC fluorogenic substrate, 60 min | Potency, µM (titrated, usually from 57.5 µM), hits mostly inhibitors | 340,000 compounds, 0.006% hits | AID 504937; active means well fitted inhibition curve with a large enough effect; inconclusive means small, poorly fitted or top-dose-only effect; inactive means no such curve, though single readings can be large or run the other way
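Fluorescence read-out (Ex 386 nm, Em 447 nm) after stopping the reaction at pH 10. Enzyme: ASM from human placenta; substrate HMU-PC0, 9 uM final; 60 min, 37 °C. Compound preincubation 10 min, ambient temperature.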
Rango dissoc inh = inhibitors of RanGTP-induced Rango-importin beta complex dissociation; Potency, µM (highest dose often 46.1 µM); 340,000 compounds, 0.071% hits; Biochemical FRET Rango-importin beta, RanGTP-induced dissociation; further: nearly all actives have a fitted effect of over 45% in size
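Recombinant Rango FRET biosensor (EYFP–snurportin 1 IBB–cerulean CFP10) at 0.1 uM premixed with 0.25 uM importin beta in PBS, 1 mM DTT, 0.02% Tween-20, 0.1% BSA. Compound added 5 min; RanGTP-RCC1 (0.6 uM Ran, 2 mM GTP, 0.2 uM RCC1) then triggers release, read at 45 min.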
Numbers stand for hits; 0 = inactive; ? = inconclusive; - = no result given; [ ] = remark or other dose. A selection: hits, their analogues and other compounds. The true share with any hit is near 0.67%. Unless noted, the call rests on the fitted dose curve.

SMILES	gsp antag	Rango complex inh	gsp agonist	ASM inhibitor	Rango dissoc inh
Cc1ccc(CC(=O)Nc2ccc(S(=O)(=O)Nc3nccc(C)n3)cc2)cc1	8.9µM	0	0	0	0
CCOc1ccccc1C(=O)Nc1ccc(S(=O)(=O)Nc2cc(OC)nc(OC)n2)cc1	0	0	20µM	0	0
CCOc1ccc(OCC(=O)OCC(=O)N2CCN(S(=O)(=O)c3ccc(C)cc3C)CC2)cc1	0	0	0	0	0
O=S(=O)(c1cccc(NC(=S)N2CCN(c3cccc(Cl)c3)CC2)c1)C(F)F	32µM	0	0[15.4 µM]	0	0
Cc1ccc(C(=O)N2CCC3(CC2)Oc2ccc(F)cc2C(=O)C32CC(c3cccnc3)=NO2)s1 (stereo not drawn)	35µM	0	-	0	0
CCOC(=O)C1=C(C)N=c2s/c(=C/c3ccc(OCC(=O)O)cc3)c(=O)n2C1c1ccc(F)cc1 (stereo not drawn)	22µM	?	0	0	?
CCOC(=O)C1=C(C)N=c2s/c(=C/c3ccc(OCC(=O)O)c(OC)c3)c(=O)n2C1c1ccc(Cl)cc1 (stereo not drawn)	35µM	?	0[15.4 µM]	0	?
CC1=C(C(=O)Nc2ccccc2)C(c2ccc(Cl)cc2)n2c(s/c(=C/c3cccc(OCC(=O)O)c3)c2=O)=N1 (stereo not drawn)	0	?	0	25µM	0
CCOC(=O)C1=C(C)N=c2s/c(=C\c3ccc(OCC(=O)O)cc3)c(=O)n2C1c1ccc(Cl)cc1 (stereo not drawn)	?	?	0	0	?
Cc1cc(C)c(S(=O)(=O)c2cccc(Cl)c2)c(=O)[nH]1	0	0	?	0	0
O=C(COC(=O)c1ccc(S(=O)(=O)Nc2ccccc2)cc1)NCCC1=CCCCC1	0	0	0[15.4 µM]	0	0
CC(OC(=O)c1ccc2c(=O)n3c(nc2c1)CCC3)C(=O)NC1CCCCC1C (stereo not drawn)	0	0	0	0	0
COc1ccc2c(c1)C(=NNc1ccc(C(=O)O)cc1)c1cc(OC)ccc1-2	0	0	13µM	0	0
COc1ccc(/C(C)=N/Nc2ccc(C(=O)O)cc2)c(OC)c1	0	0	0[15.4 µM]	0	0
COc1ccc(S(N)(=O)=O)cc1C(=O)OCC(=O)N1CC(=O)Nc2ccccc21	0	0	0[15.4 µM]	0	0
Cc1ccc(N(CC(=O)NCC2CCCO2)C(=O)CCC(=O)Nc2nccs2)cc1 (stereo not drawn)	0	?	0[15.4 µM]	0	0
Cc1ccc(C)c(N2CCN(C(=O)C3CCN(S(=O)(=O)c4cccc5nsnc45)CC3)CC2)c1	22µM	0	0	0	0
Cc1ccc(Cl)cc1N1CCN(C(=O)C2CCN(S(=O)(=O)c3c(C)nn(C)c3C)CC2)CC1	40µM	0	0[15.4 µM]	?	0
O=C(C1CCN(S(=O)(=O)c2cccc3nsnc23)CC1)N1CCCCC1	0	0	0	0	0
CC1CCN(Cc2cc(=O)oc3ccc4ccccc4c23)CC1	0	0	0[15.4 µM]	0	0
Cc1c(C)c2ccc(OCC(=O)Nc3ccccn3)cc2oc1=O	0	0	0	0	0
NC(=S)c1cc2ccc(O)cc2oc1=O	0	?	2.5µM	0	?
CCN(CC(=O)Nc1c(F)cccc1F)C(=O)CCc1nc2sc3c(c2c(=O)[nH]1)CCCC3	0	?	0[15.4 µM]	0	?
CC(C)OCCCn1c(SCC(=O)Nc2ccccc2C(F)(F)F)nc2nccnc2c1=O	0	0	40µM	0	?
OCCOCCn1c2ccccc2c2ccccc21	0	0	0	0	0
SMILES	gsp antag	Rango complex inh	gsp agonist	ASM inhibitor	Rango dissoc inh
CCC(C)(C)n1nnnc1C(c1cc(OC)ccc1OC)N1CCC(C(N)=O)CC1 (stereo not drawn)	0	0	0	0	0
Cc1ccc(-c2nnc(Nc3ccc4c(c3)OCO4)c3ccccc23)cc1S(N)(=O)=O	28µM	0	0[15.4 µM]	0	0
COc1cc(/C=C2/SC(=O)NC2=O)ccc1OCc1ccccc1	32µM	0	0	0	0
CCCCCCCCCCCCCCCCn1cc[n+](C)c1	0	65µM	0[15.4 µM]	?	?
CCCCCCCCn1ccc(=N)cc1	0	0	0[15.4 µM]	0	0
O=C(Nc1ccc(F)cc1)c1nc(S(=O)(=O)Cc2ccccc2)ncc1Cl	40µM	0	0	0	0
CCCc1nnc(NC(=O)c2nc(S(=O)(=O)Cc3cccc(C)c3)ncc2Cl)s1	28µM	?	0	0	0
CN1CCN(CC(=O)O)CC1	0	0	20µM	0	0

Screening data: PubChem BioAssay, National Center for Advancing Translational Sciences (NCATS)
